Source: patent US9127024B2 (Intrexon Corporation, priority 2013, dated 2015)

Sequences of proteins named here, by UniProt entry; tags and fusion partners are left off. Residues count along the entry.
UniProt O77240, 1-513: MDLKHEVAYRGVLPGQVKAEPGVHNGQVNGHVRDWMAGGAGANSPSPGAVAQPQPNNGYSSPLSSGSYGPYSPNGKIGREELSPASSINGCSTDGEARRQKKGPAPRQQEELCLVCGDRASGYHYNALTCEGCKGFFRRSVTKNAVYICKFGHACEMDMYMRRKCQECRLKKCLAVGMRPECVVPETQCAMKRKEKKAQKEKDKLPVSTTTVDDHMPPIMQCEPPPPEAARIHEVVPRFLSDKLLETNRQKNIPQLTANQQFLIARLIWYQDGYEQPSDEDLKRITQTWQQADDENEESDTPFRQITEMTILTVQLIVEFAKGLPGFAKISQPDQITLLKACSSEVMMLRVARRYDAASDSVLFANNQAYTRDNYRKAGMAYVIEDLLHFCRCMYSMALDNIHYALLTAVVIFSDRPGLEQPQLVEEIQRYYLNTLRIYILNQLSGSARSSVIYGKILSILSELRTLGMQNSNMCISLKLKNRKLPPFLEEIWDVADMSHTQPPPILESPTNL

Biological target: RheoSwitch® (CHO-K1_RS-1 cells, firefly Luciferase reporter) (Choristoneura fumiferana, UniProt O77240)
Assay: in vitro gene switch assay (fLUC Luciferase expression, potency screen)
Assay type: cell-based
Settings: read-out: fLUC assay EC50, 24 hours with compound, 25 μM to 2.5 pM, figure in parentheses after a value not defined
Method: Representative Compounds of the Disclosure were tested for biological activity in an in vitro gene switch assay (Tables 1 and 1A). Gene switch assays are disclosed, e.g., in U.S. Pat. Nos. 8,076,517; 7,456,315; 7,304,161; and 6,258,603.
CHO-K1 cells were stably transfected with a plasmid (RS-1, FIG. 1) coding for firefly Luciferase (fLUC) under the control of the RheoSwitch® resulting in the stable cell line CHO-K1_RS-1. A master cell bank was created containing approximately 100 vials at 5×10^6 cells per vial. One vial of CHO-K1_RS-1 was thawed and cultured for two weeks prior to each in vitro potency screening.
Twenty-four (24) hours prior to treatment with the control and test compounds the CHO-K1_RS-1 cells were seeded into white-opaque 384-well cell culture plates at 3,600 cells per well in 30 μl of culture medium. The cells were incubated in a humidified CO2 incubator at 37° C. until compound treatment.
Compounds were prepared at 25 mM in 100% dry DMSO and stored at room temperature in sealed 1 ml tubes prior to subsequent dilution and assay. […]
The cells were incubated with the compound for 24 hours in a humidified CO2 incubator at 37° C. […] The reagent was incubated with the cells for 10-120 minutes prior to reading on a Molecular Devices Spectramax L luminometer. […]

SMILES | EC50 [µM]
Cc1cc(C)cc(C(=O)N(NC(=O)c2ccc3c(c2C)OCCOB3O)C(C)(C)C(C)C)c1 | 0.222
[2H]C([2H])([2H])c1cc(C(=O)N(NC(=O)c2ccc3c(c2F)B(O)OC3)[C@@H](CC)C(C)(C)C)cc(C([2H])([2H])[2H])c1 | 0.803
